These are literature values, as cited in article PMC5325619.

The target of series [1] is pancreatic elastase (Sus scrofa) (UniProt P00772).
Another series addresses trypsin (Bos taurus) (UniProt P00760).
For series [2], the target named is chymotrypsin A (Bos taurus) (UniProt P00766).

Regarding BPTI (from UniProt P00974), the Ki (commonly the dissociation constant of the complex between target and ligand, obtained from inhibition or displacement) is 2600 nM in series [1], 0.6 pM with trypsin (Bos taurus) and 1.3 nM in series [2].
